# Laboratory results from patent US10160867B2, “Benzoxaborole-containing coating resistant to cellulose-supportable fungus” (THE PENN STATE RESEARCH FOUNDATION, priority 2015, dated 2018).
# What was measured:
# Assay in all cases: 3 day MIC, broth microdilution in 25% PDB
# Format in all cases: cell-based
# Conditions in all cases: 72 h, read-out: 3 day MIC
# [1] = test system: Penicillium brevicompactum
# Description: (§1) Stock solutions (concentrations of between 4,000 μg/mL to 10,000 μg/mL; stored at −18° C.) of the above antifungals were prepared in dimethyl sulfoxide (DMSO). The stock solutions were further diluted into sterile 25% potato dextrose broth (PDB) so that the diluted solutions could be used for the antifungal susceptibility studies. This way, a typical microdilution study would reach a final ratio of about 0.5-2% v/v of DMSO in 25% PDB.
# (§2) Spore inocula were prepared in sterile distilled water with 0.1% Tween® 20 (a polysorbate surfactant), and a hemocytometer was used to determine the spore density. Typically, the spore inoculum was prepared fresh prior to each study, and the inoculum was appropriately diluted to a final concentration of 0.4-1×10^5 spores/mL or colony-forming unit (CFU)/mL in each study. The spore suspension can be stored in a refrigerator at 4° C. for up to one week.
# (§3) The studies were performed in flat bottom, 96-well microtiter plates (Greiner Bio-One, Frickenhausen, Germany).
# (§4) Plates sealed with clear polyester film (VWR, Radnor, Pa.) were incubated at a temperature of about 25° C. The progress of fungal growth was monitored at 48 hours and 72 hours.
# [2] = test system: Penicillium chrysogenum
# Description: as §1, §2, §3, §4
# [3] = test system: Penicillium corylophilum
# Description: as §1, §2, §3, §4
# [4] = test system: Penicillium purpurogenum
# Description: as §1, §2, §3, §4
# [5] = test system: Stachybotrys chartarum
# Description: as §1, §2, §3, §4
# [6] = test system: Aspergillus flavus
# Description: as §1, §2
# (§5) The minimal inhibitory concentrations (MICs) for individual antifungal agents were determined by following a modified broth microdilution protocol CLSI (Clinical and Laboratory Standards Institute) M38-A2 [Clinical and Laboratory Standards Institute (2008) Reference method for broth dilution antifungal susceptibility testing of filamentous fungi—2nd edition: Approved Standard M38-A2, CLSI, Wayne, Pa.] where 25% potato dextrose broth (PDB) was used as the medium. The studies were performed in flat bottom, 96-well microtiter plates (Greiner Bio-One, Frickenhausen, Germany).
# as §4
# [7] = test system: Aspergillus fumigatus
# Description: as §1, §2, §5, §4
# [8] = test system: Aspergillus niger
# Description: as §1, §2, §5, §4
# [9] = test system: Aureobasidium pullulans
# Description: as §1, §2, §5, §4
# [10] = test system: Cladosporium cladosporioides
# Description: as §1, §2, §5, §4
# [11] = test system: Mucor spp.
# Description: as §1, §2, §5, §4
# [12] = test system: Rhizopus spp.
# Description: as §1, §2, §5, §4
smiles,measurement,setting,value
"OB1OCc2ccccc21 [Compound B0, 2-(hydroxymethyl)-benzene boronic acid hemiester]",MIC,[1],1.6 µg/mL
same,MIC,[2],3.13 µg/mL
same,MIC,[3],3.13 µg/mL
same,MIC,[4],6.3 µg/mL
same,MIC,[5],0.5 µg/mL
same,MIC,[6],2 µg/mL
same,MIC,[7],0.5 µg/mL
same,MIC,[8],2 µg/mL
same,MIC,[9],1 µg/mL
same,MIC,[10],0.5 µg/mL
same,MIC,[11],0.5 µg/mL
same,MIC,[12],4 µg/mL
